Chains of the proteins cited; added tags and fusions are not shown.
UniProt Q99685, whole entry L169S/L176S: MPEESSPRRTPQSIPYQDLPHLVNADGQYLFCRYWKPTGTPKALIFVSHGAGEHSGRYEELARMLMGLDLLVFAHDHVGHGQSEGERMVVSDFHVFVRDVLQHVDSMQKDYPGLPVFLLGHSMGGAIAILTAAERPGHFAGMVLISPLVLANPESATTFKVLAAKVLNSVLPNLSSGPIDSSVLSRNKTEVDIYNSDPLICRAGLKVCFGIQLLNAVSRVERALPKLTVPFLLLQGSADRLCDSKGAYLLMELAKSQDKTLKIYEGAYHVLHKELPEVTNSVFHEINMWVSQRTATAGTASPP

According to patent publication US20130184251A1, “HETEROAROMATIC AND AROMATIC PIPERAZINYL AZETIDINYL AMIDES AS MONOACYLGLYCEROL LIPASE INHIBITORS” (Janssen Pharmaceutica, NV, priority 2009, published 2013):

What was measured:
[1] = target: T1, purified mutant MGL (mut-MGLL 11-313 L179S L186S) (Homo sapiens, UniProt Q99685, L169S/L176S); assay: MGL ThermoFluor assay; conditions: read-out: Ex. 4 Kd
[2] = target: T1, purified mutant MGL (mut-MGLL 11-313 L179S L186S); assay: MGL enzyme activity assay (mutant MGL); conditions: read-out: Ex. 3 (mutant) IC50, substrate 4MU-B

SMILES | Kd [1] [µM] | IC50 [2] [µM]
Cc1cccnc1N1CCN(C2CN(C(=O)c3ccc(-c4ccccc4)cc3)C2)CC1 | 12.5 | 15.2
N#Cc1ccc(N2CCN(C3CN(C(=O)c4ccc(-c5ccccc5)cc4)C3)CC2)nc1 | > 19 | > 15.3
C[C@H](C(=O)N1CC(N2CCN(c3ccccn3)CC2)C1)c1ccc(-c2ccccc2)c(F)c1 | > 76.7 | > 15.3
O=C(c1ccc(-c2ccccc2)cc1)N1CC(N2CCN(c3ccc(C(F)(F)F)cn3)CC2)C1 | > 76.7 | > 15.3
